From patent publication US11690911B2, “Combination of ATR kinase inhibitors and PD-1/PD-L1 inhibitors” (Bayer Pharma Aktiengesellschaft, priority 2017, dated 2023) come the findings set out here.

Holding throughout (details): mouse, in vivo
The test system of assay [1] is murine syngeneic colon carcinoma model CT26. Briefly: Anti-tumor activity in murine syngeneic colon carcinoma model CT26.
For assay [2], the system named is murine syngeneic lung carcinoma model KLN205. Put plainly: Anti-tumor activity in murine syngeneic lung carcinoma model KLN205.
Assay [3] has as its system murine syngeneic colon carcinoma model MC38. Put plainly: Anti-tumor activity in murine syngeneic colon carcinoma model MC38 (study 2).
The test system is the same in assay [4]. Briefly: Anti-tumor activity in murine syngeneic colon carcinoma model MC38 (study 1).
Assay [5] deals with murine syngeneic lymphoma model A20. Put plainly: Anti-tumor activity in murine syngeneic lymphoma model A20.

Structures are written as SMILES. Marks after values point to notes of the source that are not given here.

Take `C[C@@H]1COCCN1c1cc(-c2ccnn2C)c2ccnc(-c3ccn[nH]3)c2n1` [Compound A, 2-[(3R)-3-methylmorpholin-4-yl]-4-(1-methyl-1H-pyrazol-5-yl)-8-(1H-pyrazol-5-yl)-1,7-naphthyridine]: the T/C in assay [1] was 0.50*; in assay [2], 0.36*; in assay [3], 0.46*; in assay [4], 0.10*; in assay [5], 0.38. In addition, the “anti-tumor efficacy (in words)” value in assay [1] is “moderate anti-tumor efficacy”; in assay [2], “moderate anti-tumor efficacy”; in assay [3], “moderate anti-tumor efficacy”; in assay [4] it was “good anti-tumor efficacy”; in assay [5] it was “moderate anti-tumor efficacy”.
